For one compound, Ratio Ki and Ki results are on record in ChEMBL document CHEMBL2406932, “Heteroaromatic and aniline derivatives of piperidines as potent ligands for vesicular acetylcholine transporter” (J Med Chem, 2013).

By UniProt entry, the sequences of proteins in these tests, tags left out.
UniProt Q60492, whole entry: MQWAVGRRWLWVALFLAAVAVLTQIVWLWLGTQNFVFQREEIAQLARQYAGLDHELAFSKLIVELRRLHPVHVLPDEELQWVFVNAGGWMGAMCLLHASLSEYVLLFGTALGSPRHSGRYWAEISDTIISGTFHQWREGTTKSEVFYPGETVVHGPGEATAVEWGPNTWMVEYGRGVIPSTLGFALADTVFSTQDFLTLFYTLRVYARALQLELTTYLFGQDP

For assay [1], the system named is PC-12. As to the kind of experiment: Selectivity ratio, ratio of Ki for sigma 1 receptor in guinea pig brain homogenates to Ki for human VAChT expressed in rat PC12 cells. Format: cell-based. The procedure, abridged: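 Sigma-1 binding used guinea pig brain membranes (~300 µg protein) with ~5 nM (+)-[3H]pentazocine, 90 min at room temperature; nonspecific binding was set with 10 µM haloperidol. […] The index is Ki(σ1)/Ki(VAcHT).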

Assay [2] deals with PC-12. As to the kind of experiment: Selectivity ratio, ratio of Ki for sigma 2 receptor in rat liver homogenates to Ki for human VAChT expressed in rat PC12 cells. Format: cell-based.
Assay [3] concerns the target Sigma non-opioid intracellular receptor 1 (Cavia porcellus, UniProt Q60492). As to the kind of experiment: Displacement of (+)- [3H]pentazocine from sigma 1 receptor expressed in guinea pig brain membrane homogenates by scintillation counting analysis. Format: cell membranes. The procedure, abridged:
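Guinea pig brain membrane homogenate (~300 µg protein) with ~5 nM (+)-[3H]pentazocine, 90 min at room temperature in 50 mM Tris-HCl, 150 mM NaCl, pH 7.4. Nonspecific binding taken with 10 µM haloperidol. Stopped with ice-cold wash buffer, then rapid filtration and washes. IC50 from nonlinear regression, one-site fit.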

The term Ki denotes the equilibrium dissociation constant of an inhibitor or competing ligand from its target. High values mean lower affinity, low ones higher affinity. Take `O=C(c1ccc(F)cc1)C1CCN([C@@H]2Cc3ccccc3C[C@H]2O)CC1` (relative stereo): the Ratio Ki in the assay with PC-12 [1] worked out at 71; with PC-12 [2] it was 93. Moreover, the inhibition constant (Ki) in assay [3] was determined as 191 nM.
